Data: patent US20250090564A1

Assay: In vitro digestion of blackcurrant juice concentrate (pepsin/acid, bile salts/pancreatin), LCMS
Assay type: in vitro ADME
Conditions: esters: steps 3 through 5; sarmentosin: steps 3 and 4; FIGS. 32 and 33
Description: Samples were taken at the end of 1st step and at 30 min intervals in the 2nd step to give 6 samples for analysis. The samples will be examined (LCMS) for the level of sarmentosin and sarmentosin esters and compared with the feed material. The two samples were treated as shown below in Table 17 to replicate digestion. [table] Samples taken from the subsequent treatments were stored frozen until required for analysis. The samples were all a similar volume and concentration of original juice. Analysis was performed using LCMS (method described in the earlier work). Samples were prepared in two ways, 1. addition of methanol to precipitate any protein or 2. Direct sampling of neat solution after centrifugation.

nigrumin ferulate
concentration after in vitro digestion steps: decrease
